Test results reported in patent US4313931A, “Fused dibenzo imidazolo compounds, compositions and use” (Boehringer Ingelheim KG, priority 1980, dated 1982).
Where a name gives a salt, the structure may show the parent alone.

Test: in vivo
Details: po, mouse p.o.

SMILES: NC1=NCC2c3ccccc3Cc3ccccc3N12 (stereo not shown) [Example 1, 3-Amino-9,13b-dihydro-1H-dibenzo[c,f]imidazo[1,5-a]azepine hydrobromide]
- LD50: 325 mg/kg
